Assay results: ChEMBL document CHEMBL5154701, “Thieno[2,3-d]pyrimidine-2,4(1H,3H)-dione Derivative Inhibits d-Dopachrome Tautomerase Activity and Suppresses the Proliferation of Non-Small Cell Lung Cancer Cells” (J Med Chem, 2022)

Assay: Solubility of the compound
Assay type: physicochemical

Cc1c(-c2cccc(C(F)(F)F)c2)sc2[nH]c(=O)n(Cc3cccc4ccccc34)c(=O)c12
solubility: 3.3 µg/mL (≈ 7.07 µM)

In brackets after ≈: the same amount, converted by molar mass.
